Measurements taken from patent US20250076325A1, “ARTIFICIAL HAPTEN AND ARTIFICIAL ANTIGEN OF FENTANYL, AND PREPARATION METHOD AND APPLICATION THEREOF” (published 2025).

System: colloidal gold immunochromatography reagent strip of fentanyl
Test: Drug cross-interference experiment of colloidal gold immunochromatography reagent strip of fentanyl
Conditions: reagent at 100 μg/ml in negative urine

Compound	Result (drug cross-interference)
CNC(C)Cc1ccccc1OC (stereo not drawn)	−
Cc1cc(C)nc(NS(=O)(=O)c2ccc(N)cc2)n1	−
CC[C@H]1OC(=O)[C@H](C)[C@@H](O[C@H]2C[C@@](C)(OC)[C@@H](O)[C@H](C)O2)[C@H](C)[C@@H](O[C@@H]2O[C@H](C)C[C@H](N(C)C)[C@H]2O)[C@](C)(O)C[C@@H](C)C(=O)[C@H](C)[C@@H](O)[C@]1(C)O	−
CC(CCc1ccccc1)NCC(O)c1ccc(O)c(C(N)=O)c1 (stereo not drawn)	−
Clc1cccc(Cl)c1N=C1NCCN1	−
Cn1c(=O)c2c(ncn2C)n(C)c1=O	−
CCn1cc(C(=O)O)c(=O)c2ccc(C)nc21	−
CCC1(CCC(C)C)C(=O)NC(=O)NC1=O	−
NCC(O)c1ccc(O)cc1 (stereo not drawn)	−
Nc1nc(N)c2nc(-c3ccccc3)c(N)nc2n1	−
Penicillin	−
CC(=O)Nc1ccc(O)cc1	−
OCCN1CCN(CCCN2c3ccccc3Sc3ccc(Cl)cc32)CC1	−
CN(C)CCOC(c1ccccc1)c1ccccc1	−
CCOc1ccc(NC(C)=O)cc1	−
C[C@]12CC[C@@H](O)C[C@H]1CC[C@@H]1[C@@H]2C(=O)C[C@@]2(C)[C@H]1CC[C@]2(O)C(=O)CO	−
CN(C)CCC=C1c2ccccc2C=Cc2ccccc21	−
CC(C)Cc1ccc(C(C)C(=O)O)cc1 (stereo not drawn)	−
CCN(CC)CCNC(=O)c1ccc(NC(C)=O)cc1	−
CNC1(c2ccccc2Cl)CCCCC1=O (stereo not drawn)	−
COc1cc(Cc2cnc(N)nc2N)cc(OC)c1OC	−
CC(C(=O)O)c1cccc(Oc2ccccc2)c1 (stereo not drawn)	−
NCCc1c[nH]c2ccc(O)cc12	−
CC1(C)S[C@@H]2[C@H](NC(=O)[C@H](N)c3ccccc3)C(=O)N2[C@H]1C(=O)O	−
CC1=C(CC(=O)O)c2cc(F)ccc2/C1=C\c1ccc([S+](C)[O-])cc1 (stereo not drawn)	−
COc1ccc(C(CN(C)C)C2(O)CCCCC2)cc1 (stereo not drawn)	−

Compound	Result (drug cross-interference)
CN[C@@H](C)[C@@H](O)c1ccccc1	−
C[C@]12C=CC(=O)C=C1CC[C@@H]1[C@@H]2C(=O)C[C@@]2(C)[C@H]1CC[C@]2(O)C(=O)CO	−
COc1ccc(CCN(C)CCCC(C#N)(c2ccc(OC)c(OC)c2)C(C)C)cc1OC (stereo not drawn)	−
Vitamin B1	−
Levo-cotinine	−
O=C1CC[C@@]2(O)[C@H]3Cc4ccc(O)c5c4[C@@]2(CCN3CC2CC2)[C@H]1O5	−
O=C1O[C@H]([C@@H](O)CO)C(O)=C1O	−
OC(O)C(Cl)(Cl)Cl	−
Cc1ccccc1-n1c(C)nc2ccccc2c1=O	−
CNCCCN1c2ccccc2CCc2ccccc21	−
N[C@@H](Cc1ccc(O)cc1)C(=O)O	−
CN(C)CCN(Cc1cccs1)c1ccccn1	−
NS(=O)(=O)c1cc(C(=O)O)c(NCc2ccco2)cc1Cl	−
C#C[C@]1(O)CC[C@H]2[C@@H]3CCC4=CC(=O)CC[C@@H]4[C@H]3CC[C@@]21C	−
Benzoylecgonine	−
CN(C)C(=O)C(CCN1CCC(O)(c2ccc(Cl)cc2)CC1)(c1ccccc1)c1ccccc1	−
CN(C)CCCN1c2ccccc2Sc2ccc(Cl)cc21	−
CC(C)(C)NCC(O)c1ccc(O)c(CO)c1 (stereo not drawn)	−
C[C@H]1O[C@@H](O[C@H]2[C@@H](O)C[C@H](O[C@H]3[C@@H](O)C[C@H](O[C@H]4CC[C@@]5(C)[C@H](CC[C@@H]6[C@@H]5C[C@@H](O)[C@]5(C)[C@@H](C7=CC(=O)OC7)CC[C@]65O)C4)O[C@@H]3C)O[C@@H]2C)C[C@H](O)[C@@H]1O	−
NCCc1ccc(O)cc1	−
CC(NC(C)(C)C)C(=O)c1cccc(Cl)c1 (stereo not drawn)	−
CN(C)CCCN1c2ccccc2CCc2ccc(Cl)cc21	−
NS(=O)(=O)c1cc2c(cc1Cl)N=CNS2(=O)=O	−
O=C(N[C@H](CO)[C@H](O)c1ccc([N+](=O)[O-])cc1)C(Cl)Cl	−
CCCC(C)(COC(N)=O)COC(N)=O	−
C=C[C@H]1C[N@@]2CC[C@H]1C[C@H]2[C@H](O)c1ccnc2ccc(OC)cc12	−

Compound	Result (drug cross-interference)
CNCCC=C1c2ccccc2CCc2ccccc21	−
O=C(O)c1cc(O)ccc1O	−
O=C(O)c1ccccc1O	−
Hydroxytyramine	−
CNCCCC12CCC(c3ccccc31)c1ccccc12	−
NC(=O)N1c2ccccc2C=Cc2ccccc21	−
CN1CCN(CCCN2c3ccccc3Sc3ccc(C(F)(F)F)cc32)CC1	−
O=C(O)c1ccccc1	−
C=CCN1CC[C@]23c4c5ccc(O)c4O[C@H]2C(=O)CC[C@@]3(O)[C@H]1C5	−
CN(C)CCC=C1c2ccccc2COc2ccccc21	−
CCn1cc(C(=O)O)c(=O)c2cc3c(cc21)OCO3	−
N[C@@H](Cc1c[nH]c2ccccc12)C(=O)O	−
COc1ccc(Cc2nccc3cc(OC)c(OC)cc23)cc1OC	−
CSc1ccc2c(c1)N(CCC1CCCCN1C)c1ccccc1S2 (stereo not drawn)	−
NC(=O)c1cccnc1	−
COC(=O)[C@H](Cc1ccccc1)NC(=O)[C@@H](N)CC(=O)O	−
c1ccc(C2(N3CCCCC3)CCCCC2)cc1	−
C=CCC1(C(C)CCC)C(=O)NC(=O)NC1=O (stereo not drawn)	−
CC(=O)OCC(=O)[C@@]1(O)CC[C@H]2[C@@H]3CCC4=CC(=O)CC[C@]4(C)[C@H]3[C@@H](O)C[C@@]21C	−
Ecgonidine methyl ester	−
COc1ccc2cc([C@H](C)C(=O)O)ccc2c1	−
Narcotine	−
CC(CN(C)C)CN1c2ccccc2CCc2ccccc21 (stereo not drawn)	−
CC(C)NCC(O)COc1cccc2ccccc12 (stereo not drawn)	−
CN(C)CCC=C1c2ccccc2CCc2ccccc21	−
CCN(CC)CC(=O)Nc1c(C)cccc1C	−
